ChEMBL document CHEMBL5042498, “Development of 3-(4-Chlorophenyl)-1-(phenethyl)urea Analogues as Allosteric Modulators of the Cannabinoid Type-1 Receptor: RTICBM-189 is Brain Penetrant and Attenuates Reinstatement of Cocaine-Seeking Behavior” (J Med Chem, 2022)

Amino acid sequences for entries named in this document (tags omitted).
UniProt P21554, whole entry: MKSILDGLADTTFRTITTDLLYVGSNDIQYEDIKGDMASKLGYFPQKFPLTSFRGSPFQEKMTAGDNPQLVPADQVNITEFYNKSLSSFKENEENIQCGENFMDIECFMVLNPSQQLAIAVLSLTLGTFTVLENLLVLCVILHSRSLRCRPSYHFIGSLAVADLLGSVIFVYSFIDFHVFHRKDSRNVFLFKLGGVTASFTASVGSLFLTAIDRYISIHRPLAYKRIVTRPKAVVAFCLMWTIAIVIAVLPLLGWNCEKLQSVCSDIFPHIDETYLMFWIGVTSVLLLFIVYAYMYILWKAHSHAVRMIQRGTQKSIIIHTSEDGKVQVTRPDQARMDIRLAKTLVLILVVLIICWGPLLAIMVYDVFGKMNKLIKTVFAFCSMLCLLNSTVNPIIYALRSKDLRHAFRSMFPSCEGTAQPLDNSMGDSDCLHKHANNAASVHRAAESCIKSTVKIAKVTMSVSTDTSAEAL

The molecules below were run against Cannabinoid receptor 1 (Homo sapiens, UniProt P21554) (assay: Agonist activity at human CB1 receptor CP55940-stimulated calcium mobilization at 10 uM incubated for 15 mins FLIPR assay relative to control).
Assay type: functional
Procedure, shortened: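 Agonist screen in CHO-RD-HGA16 cells stably expressing hCB1, loaded with Calcium 5 dye for 45 min at 37 °C and pretreated with buffer vehicle. Test compound is added at a single 10 μM concentration by FLIPR Tetra. Fluorescence is read every 1 s for 90 s (ex/em 485/525 nm). RFU are expressed as % of CP55,940 Emax.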

SMILES	Emax [%]
N#Cc1cccc(CCNC(=O)Nc2ccc(Cl)cc2)c1	< 30
O=C(NCCc1ccc(N2CCCCC2)cc1)Nc1ccc(Cl)cc1	< 30
O=C(NCCc1cc(Cl)cc(Cl)c1)Nc1ccc(Cl)cc1	< 30
O=C(NCCc1ccccc1)Nc1ccc(Cl)cc1	< 30
O=C(NCCc1cccc(Br)c1)Nc1ccc(Cl)cc1	< 30
Cc1cc(C)cc(CCNC(=O)Nc2ccc(Cl)cc2)c1	< 30
O=C(NCCc1cccc(OC(F)(F)F)c1)Nc1ccc(Cl)cc1	< 30
Cc1ccc(CCNC(=O)Nc2ccc(Cl)cc2)cc1C	< 30
